What was measured:
[1] = Preliminary pharmacokinetics in C3H mice; settings: p.o., 10 mg/kg
Hck = Hck (Homo sapiens, UniProt P08631, Q523E/Q524E/Q525I); assay: Z′-lyte in vitro kinase assay, Hck alone; type: biochemical; settings: for Hck Alone % Inhib (20 μM): 20 μM compound; for IC50: read-out: Hck Alone IC50, 10-point concentration-response

Sequences of proteins named here, by UniProt entry; tags and fusion partners are left off. A line that says so, or that is headed by a name, gives the form on record, which may keep a tag or linker. Residues count along the entry.
UniProt P08631, 78-522 with tags or gaps limits assumed: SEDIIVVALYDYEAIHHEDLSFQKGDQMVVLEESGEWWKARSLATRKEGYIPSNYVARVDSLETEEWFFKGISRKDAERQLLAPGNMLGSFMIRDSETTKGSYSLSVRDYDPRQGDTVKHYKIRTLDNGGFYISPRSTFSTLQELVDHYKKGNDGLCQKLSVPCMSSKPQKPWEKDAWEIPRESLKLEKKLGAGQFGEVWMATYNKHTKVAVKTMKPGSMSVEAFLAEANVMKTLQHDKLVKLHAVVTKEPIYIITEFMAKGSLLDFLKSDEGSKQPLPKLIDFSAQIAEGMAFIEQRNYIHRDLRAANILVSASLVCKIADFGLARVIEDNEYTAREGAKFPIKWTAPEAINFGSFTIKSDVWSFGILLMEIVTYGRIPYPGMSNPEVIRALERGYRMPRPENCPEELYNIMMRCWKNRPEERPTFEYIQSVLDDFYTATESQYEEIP

Row | SMILES | % F (oral bioavailability) [1] [%] | Hck Alone % Inhib (20 μM) (Hck) [%] | IC50 (Hck) [µM]
1 | NC(=S)n1nc(-c2ccc([N+](=O)[O-])cc2)c(N=Nc2cccc(Cl)c2)c1O | 2 | – | –
2 | Cc1nc2ccc3nc(NC(=O)c4ccc5c(c4)OCCO5)sc3c2s1 | – | 31.1 | > 20
3 | NC(=S)n1nc(-c2ccc([N+](=O)[O-])cc2)c(N=Nc2ccc(Cl)cc2)c1O | – | 49.7 | 20
4 | COc1ccc(NC(=O)CN2C(=O)C(=C3SC(=S)N(C4CCS(=O)(=O)C4)C3=O)c3ccccc32)cc1 (stereo not drawn) | – | 26.9 | > 20
5 | O=C(c1cnn(C(=O)c2cccc(S(=O)(=O)N3CCOCC3)c2)c1)c1ccccc1O | – | 14.1 | > 20

Source: patent US9695127B2, “Compounds for treating HIV and methods for using the compounds” (University of Pittsburgh—Of the Commonwealth System of …, priority 2012, dated 2017)
